This series deals with OCCO. The experiment in a line: purified protein, by the assay type. The following applies: other: role: substrate, 100 mM Tris-HCl pH 8.5, 30 °C, saturating NAD, EG 1-100 mM.

As for “Moraxella sp. (strain TAE123) alcohol dehydrogenase mtaADH, SEQ ID NO: 209 (Moraxella sp. TAE123)”, the Km worked out at 210 ± 65 μM EG and the Vmax is 3.2 ± 0.7 µmol/min/mg.

As to “Mycobacterium marinum alcohol dehydrogenase mmaADH, SEQ ID NO: 215 (Mycobacterium marinum M)”, the Km came out at 77 ± 8 mM and the Vmax amounted to 2.2 ± 0.1 µmol/min/mg.

The Vmax is the top rate of the reaction or transport when substrate is in excess.

Values taken from patent publication US20260357306A1, “ONE-POT FERMENTATIVE PRODUCTION OF GLYCOLATE OR OTHER HYDROXYCARBOXYLIC ACIDS” (PHYCUS BIOTECHNOLOGIES INC., priority 2023, published 2026).
